The values that follow are results of earlier work, collected in patent US20200316097A1, “STORAGE-STABLE READY-TO-USE INJECTABLE FORMULATIONS OF FOSAPREPITANT DIMEGLUMINE” (published 2020).

On to “1-deoxy-1-(methylamino)-D-glucitol[3-[[(2R,3S)-2-[(1R)-1-[3,5bis(trifluoromethyl)phenyl]ethoxy]-3-(4-fluorophenyl)-4-morpholinyl]methyl]-2,5-dihydro-5-oxo-1H-1,2,4triazol-1-yl]phosphonate (2:1) (salt)”, for which the solubility in water entry is “freely soluble”.
